## Measured affinities in a library of Ab-95 light chain variants

The measurements come from Engelhart et al. 2022 (doi:10.1038/s41597-022-01779-4) through the FLAb antibody collection.

All variants were tested on one target, the spike HR2 peptide PDVDLGDISGINAS (SARS-CoV-2).

Each scFv is VH, three GGGGS repeats, VL, as in the parent Ab-95, and differs from it in the CDRs of the light chain only.
VH: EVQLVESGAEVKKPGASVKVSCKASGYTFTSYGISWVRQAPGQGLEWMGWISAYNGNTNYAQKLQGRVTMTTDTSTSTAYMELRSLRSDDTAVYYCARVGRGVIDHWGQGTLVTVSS
VL: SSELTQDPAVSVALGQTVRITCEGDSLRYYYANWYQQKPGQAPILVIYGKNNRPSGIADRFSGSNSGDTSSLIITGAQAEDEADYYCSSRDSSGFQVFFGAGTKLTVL

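Phage display of a naive human antibody library on the peptide gave the parent. In library AAYL52, one, two or three CDR residues were substituted; doubles and triples were drawn at random. The scFvs were displayed on barcoded MATa yeast, the peptide on MATalpha yeast. After mating in shaken culture at 30 °C for 16 h, diploids were selected and their barcode pairs sequenced. Scores were corrected for input abundance and mapped to Kd with protein pairs of known affinity run in the same pool. Each pool was mated in three replicate cultures.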

Each variant is given by its three light chain CDRs, as the data file delimits them; those of the parent are EGDSLRYYYAN, GKNNRPS, SSRDSSGFQVF. The read-out is the apparent dissociation constant on a log10 scale (nM): the lower, the stronger. "ND" marks a missing value. The strain was present, yet no cells mated with the target were sequenced in that replicate, which points to weak or no binding. Background: pairings of library AAYL52 with three empty control strains gave a value in 28% of cases (median 3.91, 5th percentile 2.90). Values in that range, when seen in few replicates, are hard to tell from nonspecific mating. Also given: how often the same scFv was detected with the empty control strains, with their mean in brackets.

CDR-L1,CDR-L2,CDR-L3,"log10 Kd, replicates",empty controls
ELDSLRYYYAN,GKNLRKS,SSRDSSGFQVF,ND / ND / 4.35,5 of 9 (3.76)
EGDSLRYYYAN,GKNNRPS,SSRDDSGFQRF,ND / 2.90 / 3.02,3 of 9 (4.07)
EGDSLRYYYLN,MKNNRPS,SSRDSSGIQVF,ND / ND / ND,1 of 9 (5.35)
EAMSLRYYYAN,GKNNRPS,SSRDSSGKQVF,3.69 / ND / ND,0 of 9
EGDNLRYYYAN,GKWNRPS,SSRDSSGFQVW,2.85 / 4.66 / 3.13,1 of 9 (4.74)
EGDSLRYYYAD,GKNNRPS,SSRDSSGLQEF,ND / 2.82 / ND,1 of 9 (3.46)
EGKNLRYYYAN,GKNNNPS,SSRDSSGFQVF,4.58 / ND / ND,2 of 9 (3.20)
EGDSLRYYYDN,GKNARPS,SSRDSSGFQNF,2.84 / 2.84 / 2.78,5 of 9 (4.09)
EGDSLRYGYAN,GKNDRPS,SSRDSSGFQVF,0.67 / 0.62 / -0.10,5 of 9 (4.23)
EGDSNRYYYAN,GKNNRIS,SSRISSGFQVF,3.96 / ND / ND,3 of 9 (3.55)
IKDSLRYYYAN,HKNNRPS,SSRDSSGFQVF,3.70 / ND / ND,2 of 9 (4.00)
PGDKLRYYYAN,GDNNRPS,SSRDSSGFQVF,ND / ND / ND,0 of 9
EGDSRRYSYAN,GKNNRPK,SSRDSSGFQVF,2.60 / 2.33 / 2.21,0 of 9
EGDSLRYYIAN,GKNNRPF,SGRDSSGFQVF,2.78 / 2.77 / 2.89,4 of 9 (4.13)
EGDSLRYYYAN,GKNNAPS,GSRDSSGWQVF,3.02 / 3.87 / 4.16,1 of 9 (2.32)
EGDSLRAYYAN,GKNNRPS,GSRRSSGFQVF,3.55 / 2.72 / 3.16,2 of 9 (4.48)
EGDSLRYYYAN,AKNNRPW,SSRDSSGFQVF,5.69 / ND / ND,2 of 9 (4.44)
EGDSIRRYMAN,GKNNRPS,SSRDSSGFQVF,4.67 / ND / 3.58,5 of 9 (3.94)
EGDSLRYKYCN,GKNNRPE,SSRDSSGFQVF,1.55 / 1.47 / 0.90,3 of 9 (3.74)
EGDSLRYYYAN,RANNRPS,SSRDISGFQVF,ND / ND / 4.61,4 of 9 (3.82)
EGDKLRYYQAN,GKNNRPS,SSRDFSGFQVF,3.12 / 4.00 / 3.69,3 of 9 (4.13)
EGDPLRYYYAN,GKNNRPK,ESRDSSGFQVF,4.14 / 2.55 / 2.60,0 of 9
EGDSLRYYYAN,GKPNRPS,SKRDSSGFQPF,3.40 / ND / ND,4 of 9 (3.94)
EGDSLRYCYAG,GKNNRPA,SSRDSSGFQVF,3.91 / 3.83 / ND,1 of 9 (3.71)
EGDSLRYYYAN,GKNNRES,SSRDSSGFYVR,3.93 / 4.89 / 3.80,3 of 9 (5.02)
EGDSERYYYAN,GKNNRPS,SSRDSSSFQVF,3.50 / 3.07 / 4.73,3 of 9 (3.66)
EGDSLRPYVAN,GKNNRPS,SSNDSSGFQVF,3.20 / 3.49 / 3.99,1 of 9 (2.97)
EGVSLRYYYAN,GKNNRPY,SSRDSSGFQQF,2.73 / 3.07 / 2.81,1 of 9 (5.13)
EGDSLRYYYAN,GKNNPPS,SSRDSSPFQVF,4.57 / 4.61 / 3.23,2 of 9 (4.19)
ESDSLRYYYQN,GKNNRPS,TSRDSSGFQVF,ND / 4.62 / 3.91,2 of 9 (3.17)
EGDSWRYYYAN,GKNNRPS,SSRDSSGFQHK,3.50 / ND / ND,1 of 9 (3.98)
EWDSLRYYYAN,GKNNRPS,SSRDSSGSQVF,ND / ND / ND,0 of 9
EGDSLRYFYAN,GKNNQPS,SSRDSSYFQVF,ND / ND / 3.13,0 of 9
EGDSLRYYYAN,GKNNRPS,GSRISSGFQTF,ND / ND / ND,0 of 9
EGDNLRYYYAN,GKNNRRS,TSRDSSGFQVF,3.71 / ND / ND,2 of 9 (4.97)
EGDVLRYYYAN,GKNNRPS,YSRDSSGFQWF,2.56 / 3.38 / 2.25,1 of 9 (4.57)
EGDSERYYYAN,GKNNWPS,SSRDSSGFQVC,ND / 4.34 / 4.11,6 of 9 (4.54)
EGDSLRYYYAA,GKNNRPS,SSRDSSGFQLH,ND / ND / ND,3 of 9 (3.67)
EGDSLRYEYAN,GDNNRIS,SSRDSSGFQVF,1.60 / 1.57 / 1.53,4 of 9 (4.26)
EGDSLRYNYAN,GKNNRWS,SSRMSSGFQVF,1.63 / 1.71 / 1.39,0 of 9
EGDSLRYYRAN,GKNNRFS,SSRDSSGCQVF,ND / 3.11 / 2.74,4 of 9 (4.36)
EVDRLRYYYAW,GKNNRPS,SSRDSSGFQVF,4.51 / 3.37 / ND,2 of 9 (4.23)
EGDSLRYYYAN,GCNYTPS,SSRDSSGFQVF,4.42 / ND / 4.16,4 of 9 (4.07)
AGDSLRYYYAN,GDNNRPS,SSRDSSGVQVF,3.53 / 3.04 / 3.21,2 of 9 (3.28)
EGDSIRYYYAN,GKNDNPS,SSRDSSGFQVF,5.75 / ND / ND,4 of 9 (3.70)
IGDSLRYYYAN,GKNCRPS,SARDSSGFQVF,2.77 / 3.24 / 2.70,5 of 9 (4.39)
EGDSTRYYYAN,WKNNRPS,SSRDSSGFQVF,3.50 / 3.40 / ND,4 of 9 (3.62)
ETDSLRYYYAN,GKNNRIS,SSRDSSGFQVF,ND / ND / ND,0 of 9

The last 5 entries again:

CDR-L1,CDR-L2,CDR-L3,"log10 Kd, replicates",empty controls
AGDSLRYYYAN,GDNNRPS,SSRDSSGVQVF,3.53 / 3.04 / 3.21,2 of 9 (3.28)
EGDSIRYYYAN,GKNDNPS,SSRDSSGFQVF,5.75 / ND / ND,4 of 9 (3.70)
IGDSLRYYYAN,GKNCRPS,SARDSSGFQVF,2.77 / 3.24 / 2.70,5 of 9 (4.39)
EGDSTRYYYAN,WKNNRPS,SSRDSSGFQVF,3.50 / 3.40 / ND,4 of 9 (3.62)
ETDSLRYYYAN,GKNNRIS,SSRDSSGFQVF,ND / ND / ND,0 of 9